Screens: PubChem BioAssay, National Center for Advancing Translational Sciences (NCATS)
Shown are actives, neighbours in structure and some others; about 1.7% of the full set was active somewhere.
GLP-1R inv ag – GLP-1 receptor (human) inverse agonism; HEK293 GLP-1R CRE-luciferase, luminescence, 24 h; GLP-1R form is constitutively active; Potency, µM (highest dose often 38.3 µM), for inactives: at the highest dose activity change, negative = inhibition, usual class: inhibitors; 410,000 compounds, 1.6% hits; further: potency means the concentration at half of the fitted maximal effect; on the % scale 0 is the no-effect control and ±100 the full control effect; nearly all actives have a fitted effect of over 55% in size
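Cells are plated, allowed 12 hours at 37 deg C, then treated with compounds for 24 hr before luciferase detection reagent is added and luminescence is read after 12 min at room temperature. The HEK293 line carries constitutively active GLP-1R with a cAMP-responsive reporter.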
miR-21 reporter – raises the signal of a miR-21 reporter | HeLa miR-21 FLuc reporter, luciferase, 48 h | Potency, µM (highest dose often 38.3 µM), inactives show at the highest dose reporter change, positive = more light | 340,000 tested, under 10 active | AID 2288; active = well fitted rising curve with a large enough effect; inconclusive = small, poorly fitted or top-dose-only effect; inactive = no such curve, though single readings can be large or run the other way;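 note: % of control where 0% means no effect; miR-21 action dims this reporter so a rising signal means less miR-21 action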
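Luminescence from a firefly luciferase reporter carrying a miR-21 binding site downstream, stably expressed under a CMV promoter in HeLa cells that make miR-21 endogenously, reports miRNA modulation after 48 h compound exposure up to approximately 40uM final.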
PTHR1 agonist – PTHR1 (human) receptor agonism; 410,000 compounds, 0.075% hits; AID 743266; Q03431; Potency, µM (highest dose often 115 µM), for the others: at the highest dose activation, most hits filed as activators; HEK293 GP2 PTHR1 cells, GloSensor cAMP luminescence, 1 h; further: potency means the concentration at half of the fitted maximal effect; nearly all actives have a fitted effect of over 55% in size
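HEK-293-derived GP2 cells expressing PTHR1 and a GloSensor cAMP reporter, 3,000/well, plated overnight, given luciferin plus IBMX (each 0.5 mM as added) for 1 h at 37 °C, then compound for 1 h at 37 °C. Luminescence was read after 15 min at room temperature.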
Pin1 inh – blocks the human prolyl isomerase Pin1 | Pin1 FP peptide displacement, HiFluor488, 10 min | Potency, µM (doses to about 115 µM), without a hit: top-dose activity, negative = inhibition, actives largely listed as inhibitors | 390,000 compounds, 0.009% hits | AID 504891; active means well fitted inhibition curve with a large enough effect in the polarisation, with a control signal flat, not every such curve was filed as active; inconclusive means small, poorly fitted or top-dose-only effect, or effect the other way, or a change in a side signal; inactive means no such curve, though single readings can be large or run the other way; the % refers to the polarisation; further: potency means the concentration at half of the fitted maximal effect; on the % scale 0 is the no-effect control and ±100 the full control effect
HEK293 tox – cytotoxicity in counter-screen for GLP-1R inverse agonists; Potency, µM (highest dose often 38.3 µM), for inactives: at the top dose activity change, negative = inhibition, actives largely listed as inhibitors; HEK293 cAMP-luciferase reporter cells, luminescence, 24 h; 410,000 compounds, 0.13% hits; AID 624418;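 further: loss of luciferase light is scored as toxicity; potency means the concentration at half of the fitted maximal effect; on the % scale 0 is the no-effect control and ±100 the full control effect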
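Quantitative HTS format, 1536 wells, 200 cells/uL seeded. Compounds: 23 nL, 24 h, 37 °C. Detection: luciferase reagent, luminescence at 12 min RT; decreased signal taken as cytotoxic.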
GLP-1R agonist – activates the human GLP-1 receptor | P43220 | HEK293 GLP-1R CRE-luciferase, luminescence, 4-6 h; cells express a hypersensitive GLP-1R form | Potency, µM (titrated, usually from 45.6 µM), without a hit: top-dose activation, hits mostly activators | 380,000 compounds, 0.007% hits; further: potency means the concentration at half of the fitted maximal effect; % of control where 0% means no effect
Starred values were filed as active, the others as inactive. Unless noted, the call rests on the fitted dose curve; in most records, active means well fitted curve in the direction sought with a large enough effect; inconclusive means small, poorly fitted or top-dose-only effect, or another doubt; inactive means no such curve, though single readings can be large; an effect the other way counts as inactive or inconclusive.

CN1CC[C@H](CN2c3ccccc3Sc3ccccc32)C1 was read as GLP-1R agonist -1.7%.
For CN1CCCC(CC2Oc3ccccc3Sc3ccccc32)C1 (stereo not given) the results were GLP-1R inv ag 5.62µM*, miR-21 reporter 6.3%, PTHR1 agonist inactive, Pin1 inh -0.8%, HEK293 tox inconclusive and GLP-1R agonist -3.1%.
`c1ccc2c(c1)OC(CCCN1CCCCC1)c1ccccc1S2` (stereo not given) gave GLP-1R inv ag 7.94µM*, miR-21 reporter -10.5%, PTHR1 agonist inactive, Pin1 inh 4.6%, HEK293 tox -17.1% and GLP-1R agonist 0.3%.
`CC(C)(C)OC(=O)CC(=O)NNC(=O)c1nc2ccccc2[nH]1` gave Pin1 inh -3.2%.
`N=C1S/C(=C\c2ccco2)C(=O)N1c1nccs1` gave GLP-1R inv ag 1µM*, miR-21 reporter -12.2%, PTHR1 agonist -32.1%, Pin1 inh inconclusive, HEK293 tox -41.7% and GLP-1R agonist -2.8%.
`N=C1S/C(=C\c2ccco2)C(=O)N1c1ccc2c(c1)OCO2` gave GLP-1R inv ag 199.7%, miR-21 reporter -47.5%, PTHR1 agonist inactive, Pin1 inh inconclusive, HEK293 tox -29.2% and GLP-1R agonist 8.3%.
`COc1ccc(NS(=O)(=O)c2cc3c(cc2C)N(C)CCO3)cc1` gave GLP-1R inv ag inconclusive, miR-21 reporter 1.5%, PTHR1 agonist -23.7%, Pin1 inh -10.9%, HEK293 tox -3.0% and GLP-1R agonist 10.8%.
Cc1cc2c(cc1S(=O)(=O)Nc1cccc(Cl)c1C)OCCN2C was read as GLP-1R inv ag 10µM*, miR-21 reporter -5.7%, PTHR1 agonist -9.1%, Pin1 inh -6.5% and HEK293 tox -1.3%.
`Cc1ccccc1NC(=O)c1ccc(F)c(S(=O)(=O)N(C)C2CCCCC2)c1` gave GLP-1R inv ag 10µM*, miR-21 reporter -1.9%, PTHR1 agonist inactive, Pin1 inh 4.2% and HEK293 tox -1.1%.
Cc1ccccc1NC(=O)c1ccc(F)c(S(=O)(=O)NCC2CCCO2)c1 (stereo not given) was read as GLP-1R inv ag -11.7%, miR-21 reporter 1.6%, PTHR1 agonist -9.1%, Pin1 inh -8.7%, HEK293 tox -1.3% and GLP-1R agonist -5.9%.
`O=C(Nc1cc(Cl)ccc1N1CCCCC1)c1cccs1` gave GLP-1R inv ag -28.6%, miR-21 reporter 0.5%, PTHR1 agonist -11.9%, Pin1 inh 7.0%, HEK293 tox 1.5% and GLP-1R agonist 6.9%.
For O=C(NC(=S)Nc1ccc(N2CCCCC2)c(Cl)c1)c1cccs1 the results were GLP-1R inv ag 0.0%, PTHR1 agonist -26.0%, Pin1 inh 22.3%, HEK293 tox 2.82µM* and GLP-1R agonist -3.5%.

The last 4 records of the section before lead into the next:
`Cc1ccccc1NC(=O)c1ccc(F)c(S(=O)(=O)N(C)C2CCCCC2)c1` gave GLP-1R inv ag 10µM*, miR-21 reporter -1.9%, PTHR1 agonist inactive, Pin1 inh 4.2% and HEK293 tox -1.1%.
Cc1ccccc1NC(=O)c1ccc(F)c(S(=O)(=O)NCC2CCCO2)c1 (stereo not given) was read as GLP-1R inv ag -11.7%, miR-21 reporter 1.6%, PTHR1 agonist -9.1%, Pin1 inh -8.7%, HEK293 tox -1.3% and GLP-1R agonist -5.9%.
`O=C(Nc1cc(Cl)ccc1N1CCCCC1)c1cccs1` gave GLP-1R inv ag -28.6%, miR-21 reporter 0.5%, PTHR1 agonist -11.9%, Pin1 inh 7.0%, HEK293 tox 1.5% and GLP-1R agonist 6.9%.
For O=C(NC(=S)Nc1ccc(N2CCCCC2)c(Cl)c1)c1cccs1 the results were GLP-1R inv ag 0.0%, PTHR1 agonist -26.0%, Pin1 inh 22.3%, HEK293 tox 2.82µM* and GLP-1R agonist -3.5%.
Cc1ccc(Cl)cc1N(C)C(=O)c1sc2nc3n(c(=O)c2c1C)CCCC3 was read as GLP-1R inv ag 4.1%, miR-21 reporter 11.3%, PTHR1 agonist -79.2%, Pin1 inh 2.3% and HEK293 tox -5.3%.
`O=C1CCc2cc([S+](=O)([O-])NC3CCOCC3)ccc2N1` gave Pin1 inh 2.6%.
Cc1ccccc1C(=O)OCC(=O)Nc1cccc(S(=O)(=O)N2CCCCC2)c1 was read as GLP-1R inv ag inconclusive, PTHR1 agonist -51.7%, HEK293 tox -11.2% and GLP-1R agonist 6.1%.
For CC1CCc2c(C(=O)OCC(=O)Nc3cccc(S(=O)(=O)N4CCCCCC4)c3)csc2C1 (stereo not given) the results were GLP-1R inv ag 2.51µM*, miR-21 reporter -3.2%, PTHR1 agonist -21.4%, Pin1 inh 8.6%, HEK293 tox -2.3% and GLP-1R agonist -3.1%.
For Cc1ccc(C)c(C(=O)OCC(=O)Nc2cccc(S(=O)(=O)N3CCCCC3)c2)c1 the results were GLP-1R inv ag 1.41µM*, PTHR1 agonist -85.7%, Pin1 inh 30.8%, HEK293 tox -4.4% and GLP-1R agonist -1.4%.
`Cc1ccc(S(=O)(=O)N2CCCCC2)cc1C(=O)OC(C)C(=O)NCC1CCCCC1` (stereo not given) gave GLP-1R inv ag 7.08µM*, PTHR1 agonist -42.9%, Pin1 inh 1.5%, HEK293 tox -4.0% and GLP-1R agonist 6.1%.
Screening Cc1ccc(NC(=O)COC(=O)c2csc3c2CCC(C)C3)cc1S(=O)(=O)N1CCCCC1 (stereo not given) returned GLP-1R inv ag -5.1%, miR-21 reporter 15.1%, PTHR1 agonist -13.9%, Pin1 inh 17.0%, HEK293 tox 2.9% and GLP-1R agonist -6.6%.
COc1ccc(C2=Nn3c(nnc3-c3cc(OC)ccc3OC)SC2)c(OC)c1 was read as Pin1 inh -4.9%.
`Cc1cc(C)n2c(Nc3ccccc3)c(-c3ccc(C)o3)nc2n1` gave Pin1 inh -8.9%.
CC[C@@]12CCCN3CCc4c(n(c5ccccc45)[C@](O)(C(=O)OC)C1)C32 (stereo not given in full) was read as GLP-1R agonist -4.8%.
O=C(N/N=C/c1ccc(OC(F)F)cc1OC(F)F)NC1CCCCC1 was read as GLP-1R inv ag 4.47µM*, miR-21 reporter 5.3%, PTHR1 agonist -10.3%, Pin1 inh 6.3%, HEK293 tox -7.9% and GLP-1R agonist 22.9%.
O=C(N/N=C/c1ccc(OC(F)F)cc1OC(F)F)c1ccc(Br)cc1 was read as GLP-1R inv ag inconclusive, miR-21 reporter -9.3%, PTHR1 agonist -33.1%, Pin1 inh -4.3%, HEK293 tox 1.3% and GLP-1R agonist 5.5%.
`Cc1cccc(NC(=O)CN(C)C(=O)c2ccc(N3CCCCCC3)c([N+](=O)[O-])c2)c1C` gave GLP-1R inv ag 11.2µM*, PTHR1 agonist inactive, Pin1 inh 1.8%, HEK293 tox -22.8% and GLP-1R agonist 13.5%.
`CN(CC(=O)Nc1ccccc1Cl)C(=O)c1ccc(N2CCCCCC2)c([N+](=O)[O-])c1` gave GLP-1R inv ag inconclusive, PTHR1 agonist -21.9%, Pin1 inh -4.3%, HEK293 tox -7.6% and GLP-1R agonist -6.1%.
O=[S+]([O-])(/C=C/c1nc(Nc2cc(F)cc(F)c2)c2ncn(CC(F)F)c2n1)c1ccccc1 was read as Pin1 inh 0.3%.
`COc1ccc(NC(=O)CN2C(=O)C(c3ccc(C)cc3)=NC23CCCCCC3)cc1Cl` gave GLP-1R inv ag 11.2µM*, miR-21 reporter 20.6%, PTHR1 agonist -16.0%, Pin1 inh 3.7% and HEK293 tox -6.7%.
